Where two headings read alike, the source gives them in different places.
Legend:
[1] = target: T1, δ receptor (Mus musculus, UniProt P32300)
[2] = target: T1, δ receptor; settings: for Deltorphin I Bmax: kappa receptor gene line

The chains behind the UniProt entries cited, without tags or fusion partners. Where a name states a change or a piece, a line headed by the entry shows the natural chain unless it says otherwise.
UniProt P32300, whole entry: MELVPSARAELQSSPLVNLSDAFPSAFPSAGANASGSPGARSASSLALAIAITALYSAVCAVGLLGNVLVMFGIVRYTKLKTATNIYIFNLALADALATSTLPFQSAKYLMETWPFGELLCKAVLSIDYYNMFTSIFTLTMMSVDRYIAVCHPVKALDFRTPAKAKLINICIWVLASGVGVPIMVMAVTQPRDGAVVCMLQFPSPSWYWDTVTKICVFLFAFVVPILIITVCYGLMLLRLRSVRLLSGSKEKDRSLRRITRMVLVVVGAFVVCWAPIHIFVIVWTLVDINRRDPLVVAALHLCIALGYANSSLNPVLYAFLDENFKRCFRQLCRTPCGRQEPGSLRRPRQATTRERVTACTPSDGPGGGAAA

Structure (SMILES): CC(C)[C@H](NC(=O)[C@H](CC(=O)O)NC(=O)[C@H](Cc1ccccc1)NC(=O)[C@@H](C)NC(=O)[C@@H](N)Cc1ccc(O)cc1)C(=O)N[C@H](C(=O)NCC(N)=O)C(C)C [Deltorphin I, D-Ala^2deltorphin I]
- distribution of binding sites ([1]; kappa receptor deficient mice): not altered
- number of δ receptors detected by autoradiography ([1]; −/− MOR mouse versus wild-type): lower number of receptors
- change in binding of the delta ligands ([2]; kappa mutant animals with respect to wild animals): no change in the binding
- Deltorphin I Bmax ([2]; heterozygous +/−): 0.099 pmole/mg proteins
- Deltorphin I Bmax ([2]; homozygous −/−): 0.090 pmole/mg proteins
- Deltorphin I Bmax ([2]; wild +/+): 0.089 pmole/mg proteins

Reference: patent US6632977B2 (priority 1996, dated 2003)
